Measurements published in ChEMBL document CHEMBL5550208, “Discovery and Optimization of Hsp110 and sGC Dual-Target Regulators for the Treatment of Pulmonary Arterial Hypertension” (J Med Chem, 2024).
Calls of active or inactive are those of the source. The rule behind the calls is not given here.

Sequences of proteins named here, by UniProt entry; tags and fusion partners are left off. A change or cut given only in a name is not applied to a line headed by its entry.
UniProt Q92598: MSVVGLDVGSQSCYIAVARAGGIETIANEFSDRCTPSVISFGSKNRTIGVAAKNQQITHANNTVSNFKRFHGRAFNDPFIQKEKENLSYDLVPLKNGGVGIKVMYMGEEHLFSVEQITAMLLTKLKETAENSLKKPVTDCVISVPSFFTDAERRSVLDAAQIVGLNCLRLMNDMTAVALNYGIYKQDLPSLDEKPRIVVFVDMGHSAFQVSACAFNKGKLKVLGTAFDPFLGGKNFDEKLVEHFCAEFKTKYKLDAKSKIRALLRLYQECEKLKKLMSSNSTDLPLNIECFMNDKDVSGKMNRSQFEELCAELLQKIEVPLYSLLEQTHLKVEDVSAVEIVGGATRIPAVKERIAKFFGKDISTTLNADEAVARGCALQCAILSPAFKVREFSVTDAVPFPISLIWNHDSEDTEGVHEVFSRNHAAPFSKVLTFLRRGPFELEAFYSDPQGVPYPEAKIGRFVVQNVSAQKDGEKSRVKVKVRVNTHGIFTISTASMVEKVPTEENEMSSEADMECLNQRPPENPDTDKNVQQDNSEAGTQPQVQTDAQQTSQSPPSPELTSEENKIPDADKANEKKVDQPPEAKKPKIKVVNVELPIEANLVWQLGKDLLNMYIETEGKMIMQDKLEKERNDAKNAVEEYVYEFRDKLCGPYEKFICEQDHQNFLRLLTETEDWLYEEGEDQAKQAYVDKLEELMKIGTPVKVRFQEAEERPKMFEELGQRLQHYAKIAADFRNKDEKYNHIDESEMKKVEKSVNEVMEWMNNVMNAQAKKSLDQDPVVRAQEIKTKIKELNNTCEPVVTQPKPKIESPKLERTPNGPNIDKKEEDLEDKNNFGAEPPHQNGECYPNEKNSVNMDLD

Columns and labels:
[1] = target: Heat shock protein 105 kDa (Homo sapiens) (UniProt Q92598); test: Inhibition of Hsp110 (unknown origin) binding to ATP-FAM expressed in BL21 receptor cells at 50 uM preincubated for 1 hr followed by ATP-FAM (N6-(6-amino)hexyl-ATP-5-FAM addition and measured after 1 hrs by fluorescence polarization assay; format: cell-based; conditions: time 2.0 hrs
[2] = tested on: HEK293T; test: Activation of sGC in human HEK293T cells assessed as increase in cGMP formation at 10 uM measured every two mins for 2.5 hrs in presence of IBMX /ODQ by fluorescence based analysis; format: cell-based; conditions: filed as activator
[3] = Antiproliferative activity against human PASMC cells measured after 48 hrs under hypoxia condition by CCK-8 method; format: toxicity, cell-based; conditions: 100 µM
[4] = Toxicity in Sprague-Dawley rat assessed as effect on body weight at 10 to 30 mg/kg, po qd measured upto 4 weeks; format: organism-based; conditions: in vivo, 672 h, dose 10-30 mg/kg
[5] = Apparent oral volume of distribution in male Sprague-Dawley rat at 1 mg/kg, iv; format: ADME, organism-based; conditions: in vivo
[6] = Antiproliferative activity against human PASMC cells at 40 uM measured after 24 hrs by Edu staining based analysis; format: toxicity, cell-based
[7] = In vivo activation of sGC in hypoxia induced Pulmonary Arterial Hypertension Sprague-Dawley rat model assessed as reversal of hypoxia induced RVSP level at 30 mg/kg, po qd measured after 4 weeks (reference value: 17.2mmHg); format: functional
[8] = In vivo activation of sGC in hypoxia induced Pulmonary Arterial Hypertension Sprague-Dawley rat model assessed as reversal of hypoxia induced RVSP level at 10 mg/kg, po qd measured after 4 weeks (reference value: 17.2mmHg); format: functional
[9] = tested on: Rattus norvegicus; test: In vivo activation of sGC in hypoxia induced Pulmonary Arterial Hypertension Sprague-Dawley rat model assessed as improvement in hypoxia induced PAMT level at 10 mg/kg, po qd measured after 4 weeks by H and E staining based analysis; format: functional, organism-based
[10] = tested on: Rattus norvegicus; test: In vivo activation of sGC in hypoxia induced Pulmonary Arterial Hypertension Sprague-Dawley rat model assessed as improvement in hypoxia induced RVH level at 10 mg/kg, po qd measured after 4 weeks by H and E staining based analysis; format: functional, organism-based
[11] = tested on: Rattus norvegicus; test: Antifibrotic activity against induced Pulmonary Arterial Hypertension Sprague-Dawley rat model assessed as attenuation of PKG1 expression level at 10 mg/kg, po by Western blot analysis; format: functional, organism-based
[12] = tested on: Rattus norvegicus; test: Antifibrotic activity against hypoxia induced Pulmonary Arterial Hypertension Sprague-Dawley rat model assessed as downregulation of collagen I overexpression at 10 mg/kg, po by Western blot analysis; format: functional, organism-based
[13] = tested on: Rattus norvegicus; test: Antifibrotic activity against hypoxia induced Pulmonary Arterial Hypertension Sprague-Dawley rat model assessed as downregulation of fibronectin overexpression at 10 mg/kg, po by Western blot analysis; format: functional, organism-based
[14] = tested on: Rattus norvegicus; test: Antifibrotic activity against hypoxia induced Pulmonary Arterial Hypertension Sprague-Dawley rat model assessed as effect on PCNA protein level at 10 mg/kg, po by Western blot analysis; format: functional, organism-based

In the case of `O=C(O)c1ccc(COc2ccc(Cl)cc2NS(=O)(=O)c2ccc(F)cc2)cc1`, the inhibition [1] is reported as “Active” and the Activity [2] is reported as “Active”.

With `O=C(O)CCc1cccc(NC(=O)c2cc(Cl)ccc2NC(=O)c2ccc(C(F)(F)F)cc2)c1` the Activity [3] was “Dose-Dependent Effect”, the Activity [4] was “Non-Toxic” and the Vd/F [5] was 34.7 L/kg. For the same compound, the Activity [6] was “Toxic”, the Activity [7] was 32.4 mmHg and the Activity [8] was 27.1 mmHg.

In the case of `COC(=O)N(C)c1c(N)nc(-c2nn(Cc3ccccc3F)c3ncccc23)nc1N` [RIOCIGUAT], the Activity [9] is reported as “Active”, the Activity [10] is reported as “Active” and the Activity [11] is reported as “Active”. The Activity [12] was “Active”, the Activity [13] was “Active” and the Activity [14] was “inactive”.
